## AlphaSeq binding of Ab-14 light chain variants to a spike HR2 peptide

Source: Engelhart et al. 2022 (doi:10.1038/s41597-022-01779-4), MIT Lincoln Laboratory and A-Alpha Bio; data file from the FLAb repository.

Antigen: PDVDLGDISGINAS, a 14-residue peptide of the SARS-CoV-2 spike HR2 region.

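Phage display of a naive human antibody library on the peptide gave the parent. Variants in AAYL50 differ from the parent at up to three CDR positions; double and triple changes were sampled at random. AlphaSeq pools MATa yeast showing the antibodies with MATalpha yeast showing the peptide. After mating in shaken culture at 30 °C for 16 h, diploids were selected and their barcode pairs sequenced. Scores were corrected for input abundance and mapped to Kd with protein pairs of known affinity run in the same pool. There are three technical replicates.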

Parent scFv Ab-14: VH joined to VL by the linker GGGGSGGGGSGGGGS. Changes lie in the light chain CDRs alone.
VH: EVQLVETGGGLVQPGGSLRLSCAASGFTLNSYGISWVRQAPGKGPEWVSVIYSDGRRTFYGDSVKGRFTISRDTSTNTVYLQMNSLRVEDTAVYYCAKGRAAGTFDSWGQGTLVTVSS
VL: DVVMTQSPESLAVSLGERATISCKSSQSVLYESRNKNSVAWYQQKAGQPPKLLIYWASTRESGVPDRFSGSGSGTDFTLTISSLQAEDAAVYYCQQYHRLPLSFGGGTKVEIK

Positions count from residue 1 of the parent VL; V29Q puts Q in place of V. Each Kd is an estimate from the mating assay, the geometric mean of the replicates in which the pair was seen; lower is stronger. "no signal" means that the variant was in the library but no mating with the target was seen in any replicate; the authors take this as a sign of poor binding, and no number exists. Entries are sorted by rising average, undetected variants last. As a blank, each scFv also met three strains without target: over library AAYL50, 18% of these pairings were detected, typically at 15 µM and seldom below 970 nM. In this assay the parent's reference entry averaged 4.4 nM; its copy inside this library read 48 nM.

changes | Kd (apparent) | detected
V29Q N37D W56Q | 410 pM | 3/3
W56G H98A S103C | 1.2 nM | 3/3
S26D V29N T59I | 1.7 nM | 3/3
S25V Q95S | 3.7 nM | 3/3
Q27D L30P N35E | 4.4 nM | 3/3
V29A E32D R34G | 4.7 nM | 3/3
Q27P Y31G S38H | 4.8 nM | 3/3
R34T W56S T59G | 6.1 nM | 3/3
L30C P101F L102A | 9.7 nM | 3/3
V29E L100I S103E | 10 nM | 3/3
S26A H98S | 16 nM | 3/3
S28K V29E N35S | 16 nM | 3/3
Q27E E61V S103H | 17 nM | 3/3
L30G N35D V39I | 18 nM | 3/3
S26A Q95E Y97A | 22 nM | 3/3
L30F Y97E | 22 nM | 3/3
S25Q S38E R99P | 23 nM | 3/3
Q27A N37A L102C | 24 nM | 3/3
S33Q W56R S62H | 30 nM | 3/3
K24H S25L Q95V | 50 nM | 3/3
Y31S S33G S103R | 52 nM | 3/3
L30M Y31C E32A | 60 nM | 3/3
V29M N37V S62Q | 93 nM | 3/3
K24T R99D | 95 nM | 3/3
S25T S28P E32C | 120 nM | 3/3
L30G N35G V39L | 270 nM | 3/3
V29P A57E R99T | 330 nM | 3/3
V39G Q96A R99K | 370 nM | 3/3
S33F N35P N37Y | 770 nM | 3/3
N35R Q96S L102M | 1.5 µM | 2/3
Q27Y E61H S62K | 1.7 µM | 3/3
S25K Q96T L100Q | 2.1 µM | 2/3
R60E P101H S103I | 2.2 µM | 1/3
A57W T59G | 3.2 µM | 1/3
S25P H98L L100V | 3.4 µM | 3/3
L30S Q95S R99G | 4.1 µM | 3/3
S28V R34V R60A | 4.1 µM | 2/3
Q27F S33H R60F | 4.6 µM | 2/3
Q27N E32F R60Q | 5.2 µM | 3/3
V29D E61S P101M | 6.2 µM | 1/3
K36I P101T | 16 µM | 2/3
S25H A57Q P101T | 68 µM | 1/3
S25P N37L Q96H | 93 µM | 2/3
R34A R60D H98F | 110 µM | 2/3
L30G N35D Q95M | 150 µM | 3/3
S25T A40V T59Y | 190 µM | 1/3
S25N N35Y P101F | 200 µM | 1/3
Y31Q E61W L100W | 270 µM | 2/3
S26L A57Q S62L | no signal | 0/3
R60P Q95V Q96W | no signal | 0/3
V39E A57E S103Q | no signal | 0/3
A57E S58G Q96Y | no signal | 0/3
N35Q R60V Y97R | no signal | 0/3
R34K K36H L100P | no signal | 0/3
S26G S33E L100H | no signal | 0/3
N35H A57Y Q96K | no signal | 0/3
V39A W56I H98F | no signal | 0/3
S33W R60M H98I | no signal | 0/3
S26G H98T | no signal | 0/3
R34P S38H H98M | no signal | 0/3
S25V K36M T59I | no signal | 0/3
K24R Y31I V39E | no signal | 0/3
V29K E32M V39W | no signal | 0/3
V29N T59S Q95R | no signal | 0/3
Q27A W56G L100V | no signal | 0/3
W56Q S58L P101Q | no signal | 0/3
S28G W56V R99N | no signal | 0/3

Repeated from above, the 10 best binders with a signal in all replicates:

changes	Kd (apparent)	detected
V29Q N37D W56Q	410 pM	3/3
W56G H98A S103C	1.2 nM	3/3
S26D V29N T59I	1.7 nM	3/3
S25V Q95S	3.7 nM	3/3
Q27D L30P N35E	4.4 nM	3/3
V29A E32D R34G	4.7 nM	3/3
Q27P Y31G S38H	4.8 nM	3/3
R34T W56S T59G	6.1 nM	3/3
L30C P101F L102A	9.7 nM	3/3
V29E L100I S103E	10 nM	3/3